The target in one assay is JAK2 (Homo sapiens (Human), UniProt O60674). Nature of the assay: Jak Biochemical HTRF Assay (JAK2). The conditions noted are these: JAK2 IC50 (nM). Here is the method: (§1) Jak Biochemical HTRF Assay Protocol
(§2) The ability of compounds to inhibit the activity of JAK1, JAK2, JAK3, and Tyk2 was measured using a recombinant purified GST-tagged catalytic domain for each enzyme (Invitrogen JAK1 #M4290, JAK2 #M4290, JAK3 #M4290, Tyk2 #M4290) in an HTRF format biochemical assay. […] The basic assay protocol is as follows: First, 250 nL of diluted compounds in DMSO were dispensed into the wells of a dry 384-well Black plate (Greiner #781076) using a Labcyte Echo 555 acoustic dispenser. Subsequent reagent additions employed an Agilent Bravo. Next, 18 μL of 1.11× enzyme and 1.11× substrate in 1× assay buffer (Invitrogen kinase buffer # PV3189, 2 mM DTT, 0.05% BSA) were added to the wells and shaken and then preincubated for 30 minutes at room temperature to allow compound binding to equilibrate. After equilibration, 2 μL of 10×ATP in 1× assay buffer was added to initiate the kinase reaction and the plates were shaken and then incubated at room temperature for 120 minutes. […] Plates were shaken and centrifuged and then incubated 60 minutes at room temperature and then read on a Perkin Elmer Envision (Xex=337 nm, λem=665 and 615 nm, TRF delay time=20 μs). HTRF signal=10,000*665 nm reading/615 nm reading. After normalization to untreated controls, the percent inhibition of the HTRF signal at each compound concentration was calculated. […]
(TR-FRET usually uses a lanthanide donor and a delayed reading to cut background.)

Sequences of proteins named here, by UniProt entry; tags and fusion partners are left off. Residues count along the entry.
UniProt O60674, 849-1124: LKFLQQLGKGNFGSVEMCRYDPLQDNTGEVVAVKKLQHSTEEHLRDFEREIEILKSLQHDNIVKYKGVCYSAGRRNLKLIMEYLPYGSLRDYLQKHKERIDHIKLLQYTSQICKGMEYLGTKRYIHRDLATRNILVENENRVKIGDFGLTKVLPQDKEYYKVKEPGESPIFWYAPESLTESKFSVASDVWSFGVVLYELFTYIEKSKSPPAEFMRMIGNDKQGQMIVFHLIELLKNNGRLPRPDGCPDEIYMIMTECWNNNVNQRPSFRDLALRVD
UniProt P23458, 875-1153: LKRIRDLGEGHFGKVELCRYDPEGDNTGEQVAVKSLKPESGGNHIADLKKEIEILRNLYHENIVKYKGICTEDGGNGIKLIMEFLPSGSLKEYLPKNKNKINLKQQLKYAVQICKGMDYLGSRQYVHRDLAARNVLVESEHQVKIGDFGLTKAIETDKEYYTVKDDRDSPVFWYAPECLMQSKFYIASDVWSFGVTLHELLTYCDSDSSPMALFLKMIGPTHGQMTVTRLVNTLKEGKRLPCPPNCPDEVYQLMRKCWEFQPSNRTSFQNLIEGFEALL

Another assay has as its target JAK1 (Homo sapiens (Human), UniProt P23458). Nature of the assay: Jak Biochemical HTRF Assay (JAK1). The conditions noted are these: JAK1 IC50 (nM). Here is the method: as §1, §2

Among the data in patent US10072025B2, “Ethyl N-boc piperidinyl pyrazolo pyridones as Janus kinase inhibitors” (Merck Sharp & Dohme Corp., priority 2014, dated 2018) are IC50 values, retold here.

A word on the IC50: it is the concentration needed to halve the response being measured. A lower IC50 goes with greater potency.

For the compound `CCC1(n2nc(Nc3ccc(C(=O)N4CCOCC4CC(C)C)c(C)c3)c3c(=O)[nH]ccc32)CCN(C(=O)OC(C)(C)C)CC1` (single isomer, unassigned) [Example 3-17, tert-butyl 4-ethyl-4-{3-[(3-methyl-4-{[3-(2S or 2R-methylpropyl)morpholin-4-yl]carbonyl}phenyl)amino]-4-oxo-4,5-dihydro-1H-pyrazolo [4,3-c]pyridin-1-yl} piperidine-1-carboxylate], the values for the IC50 on JAK2 and against JAK1 were 3.92 nM and 5.33 nM, respectively.
In the case of `CCC1(n2nc(Nc3ccc(C(=O)N4CCOCC4CC(C)C)c(C)c3)c3c(=O)[nH]ccc32)CCN(C(=O)OC(C)(C)C)CC1` (single isomer, unassigned) [Example 3-18, tert-butyl 4-ethyl-4-{3-[(3-methyl-4-{[3-(2S or 2R-methylpropyl)morpholin-4-yl]carbonyl}phenyl)amino]-4-oxo-4,5-dihydro-1H-pyrazolo[4,3-c]pyridin-1-yl} piperidine-1-carboxylate], the IC50 turned out to be 4.77 nM against JAK2 and 5.45 nM on JAK1.
